The term IC50 denotes the midpoint of a concentration-inhibition curve.

Chains of the proteins cited; added tags and fusions are not shown.
UniProt P23219, whole entry: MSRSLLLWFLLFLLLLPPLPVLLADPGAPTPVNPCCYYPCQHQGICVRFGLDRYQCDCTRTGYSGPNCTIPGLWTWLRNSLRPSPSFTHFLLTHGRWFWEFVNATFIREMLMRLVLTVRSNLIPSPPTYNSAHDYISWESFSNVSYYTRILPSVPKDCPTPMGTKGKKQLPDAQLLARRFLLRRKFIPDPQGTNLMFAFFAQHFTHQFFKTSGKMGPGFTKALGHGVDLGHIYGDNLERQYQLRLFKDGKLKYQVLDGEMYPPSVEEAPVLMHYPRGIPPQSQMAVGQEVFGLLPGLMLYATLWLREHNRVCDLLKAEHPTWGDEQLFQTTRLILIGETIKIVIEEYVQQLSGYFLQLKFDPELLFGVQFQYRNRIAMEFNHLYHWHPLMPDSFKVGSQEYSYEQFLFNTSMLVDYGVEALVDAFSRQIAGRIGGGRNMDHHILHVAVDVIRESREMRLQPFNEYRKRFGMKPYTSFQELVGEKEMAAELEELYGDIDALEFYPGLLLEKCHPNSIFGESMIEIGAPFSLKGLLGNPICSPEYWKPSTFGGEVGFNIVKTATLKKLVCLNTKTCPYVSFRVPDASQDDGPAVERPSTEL

This assay deals with Prostaglandin G/H synthase 1 (Homo sapiens, UniProt P23219). Briefly: Inhibition of COX1 in LPS-induced human whole blood assessed as PGE2 production.

`Cc1onc(-c2ccccc2)c1-c1ccc(S(N)(=O)=O)cc1` [VALDECOXIB]: the IC50 stood at 34.3 µM.

The record behind these values is ChEMBL document CHEMBL1155807, “Synthesis, biological evaluation, and enzyme docking simulations of 1,5-diarylpyrrole-3-alkoxyethyl ethers as selective cyclooxygenase-2 inhibitors endowed with anti-inflammatory and antinociceptive activity” (J Med Chem, 2008).
